This is an account of results in patent US20080268439A1, “ASSAY SYSTEMS AND METHODS FOR DETECTING MOLECULES THAT INTERACT WITH SK2 CHANNELS” (priority 2007, published 2008).

The chains behind the UniProt entries cited, without tags or fusion partners. A line that says so, or that is headed by a name, gives the form on record, which may keep a tag or linker.
UniProt Q9H2S1, with tags, fused parts or gaps DUP58-58: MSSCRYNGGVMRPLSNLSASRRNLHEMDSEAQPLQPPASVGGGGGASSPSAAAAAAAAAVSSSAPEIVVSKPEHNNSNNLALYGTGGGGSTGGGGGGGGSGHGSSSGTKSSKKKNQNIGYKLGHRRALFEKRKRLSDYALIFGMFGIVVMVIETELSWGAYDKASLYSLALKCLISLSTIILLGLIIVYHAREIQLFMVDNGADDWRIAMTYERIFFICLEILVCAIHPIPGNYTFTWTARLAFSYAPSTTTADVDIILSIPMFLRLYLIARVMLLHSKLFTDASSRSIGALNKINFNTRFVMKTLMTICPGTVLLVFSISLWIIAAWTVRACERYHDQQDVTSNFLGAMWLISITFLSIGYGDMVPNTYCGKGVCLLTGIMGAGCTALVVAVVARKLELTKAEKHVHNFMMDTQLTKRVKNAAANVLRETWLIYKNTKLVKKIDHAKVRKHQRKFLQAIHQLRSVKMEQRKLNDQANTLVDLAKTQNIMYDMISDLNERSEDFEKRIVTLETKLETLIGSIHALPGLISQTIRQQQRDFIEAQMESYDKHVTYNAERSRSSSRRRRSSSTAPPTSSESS

Each structure is given as a SMILES string.

The target in this assay is hSK2A^+ expressed in mammalian tsA201 cells (Homo sapiens, UniProt Q9H2S1, DUP58-58). Briefly: Membrane potential sensitive dye fluorescence (FLIPR) assay in tsA201 cells stably expressing SK2. The conditions noted are these: riluzole-induced hyperpolarization, FIG. 10.

Regarding `Nc1nc2ccc(OC(F)(F)F)cc2s1` [Riluzole], the nH is on record as 1.4.
